Reference: ChEMBL document CHEMBL4041526, “Discovery of 2H-Chromen-2-one Derivatives as G Protein-Coupled Receptor-35 Agonists” (J Med Chem, 2017)
Calls of active or inactive are those of the source. The rule behind the calls is not given here.

Amino acid sequences for entries named in this document (tags omitted). A change or cut given only in a name is not applied to a line headed by its entry.
UniProt Q9HC97: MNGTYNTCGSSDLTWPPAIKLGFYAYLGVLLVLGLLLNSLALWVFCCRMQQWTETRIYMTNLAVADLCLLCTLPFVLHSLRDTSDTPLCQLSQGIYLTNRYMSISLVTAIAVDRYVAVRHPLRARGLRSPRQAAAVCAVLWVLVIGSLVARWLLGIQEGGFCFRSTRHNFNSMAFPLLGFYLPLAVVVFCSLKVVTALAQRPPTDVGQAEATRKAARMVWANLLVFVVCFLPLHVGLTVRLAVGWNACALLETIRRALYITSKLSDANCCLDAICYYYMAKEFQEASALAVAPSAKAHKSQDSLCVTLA

Target: G-protein coupled receptor 35 (Homo sapiens, UniProt Q9HC97)
Test: Agonist activity at GPR35 in human HT-29 cells in presence of antagonist ML-145 by DMR assay
Type: cell-based
In short: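 HT-29 DMR antagonist format: ML-145 was titrated against the coumarin agonist, each agonist given at its EC80–EC100 dose. Cells were kept in HBSS and equilibrated 1 h in the reader. IC50 was calculated from the DMR amplitude at 8 min post-stimulation. Mean ± sd, two independent measurements × four replicates (n=8).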

Compound: N#Cc1cc2ccccc2oc1=O
- Activity: inactive
